This assay has as its target human CSNK1A1 (Homo sapiens (Human), UniProt P48729). Kind of assay: CSNK1A1 Assay 1 (ADP-Glo, 1 μM ATP). The conditions noted are these: read-out: CSNK1A1 Assay 1 IC50 [mol/l] (median), median or individual measurements, Table 4, WO 2016/120196 comparison compounds. The protocol:
CSNK1A1-inhibitory activity of compounds of the present invention in presence of 1 μM adenosine-tri-phosphate (ATP) was quantified employing the CSNK1A1 assay as described in the following paragraphs. In essence, the enzyme activity is measured by quantification of the adenosine-di-phosphate (ADP), which is generated as a co-product of the enzyme reaction, via the “ADP-Glo™ Kinase Assay” kit from the company Promega. This detection system works as follows: In a first step the ATP not consumed in the kinase reaction is quantitatively converted to cAMP employing an adenylate cyclase (“ADP-Glo-reagent”), then the adenylate cyclase is stopped and the ADP generated in the kinase reaction converted to ATP which generates in a luciferase-based reaction a glow-luminescence signal (“Kinase Detection Reagent”).
Recombinant fusion protein of N-terminal Glutathion-S-Transferase (GST) and full-length human CSNK1A1, expressed by baculovirus infected insect cells and purified via Glutathion affinity chromatography, was purchased from Life Technologies (product no. PV4174) and used as enzyme. As substrate for the kinase reaction the biotinylated peptide Btn-Ahx-SGSEGDSESGEEEG (C-terminus in amide form) was used which can be purchased e.g. from the company Biosyntan (Berlin-Buch, Germany). […]

By UniProt entry, the sequences of proteins in these tests, tags left out.
UniProt P48729, whole entry: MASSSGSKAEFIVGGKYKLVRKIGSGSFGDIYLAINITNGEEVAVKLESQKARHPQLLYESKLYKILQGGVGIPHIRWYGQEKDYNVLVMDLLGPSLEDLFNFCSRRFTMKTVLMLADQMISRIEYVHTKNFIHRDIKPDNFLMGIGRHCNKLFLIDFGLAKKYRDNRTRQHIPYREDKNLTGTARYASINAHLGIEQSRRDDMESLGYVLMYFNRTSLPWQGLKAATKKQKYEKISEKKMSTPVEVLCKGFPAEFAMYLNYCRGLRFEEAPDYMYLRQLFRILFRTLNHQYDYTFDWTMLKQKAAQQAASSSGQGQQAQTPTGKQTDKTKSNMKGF

The structures appear in SMILES notation. Several values for one entry are separate records, joined by “and”; a condition that tells them apart may be missing. Identical values can stand only once.

With `CN1CCc2[nH]c(-c3ccnc(NC(=O)C4CC4)c3)c(Nc3ccccc3)c2C1=O`, the IC50 was < 3.4 nM and 10 nM and 5.6 nM.

The values are drawn from patent publication US20230365554A1, “SUBSTITUTED PYRROLO-PYRIDINONE DERIVATIVES AND THERAPEUTIC USES THEREOF” (The Broad Institute, Inc., priority 2020, published 2023).
